The record followed here is PubChem BioAssay AID602163 (The Scripps Research Institute Molecular Screening Center, 2012).

This is a selection; strong and weak results do not stand in their true shares. Active and inactive are the calls of the source. No stated cut-off is given here; in the data, active means activation above about 7.5%; inactive means the rest.

The experiment relates to Methionine sulfoxide reductase A (Bos taurus). The experiment can be described thus: activation of methionine sulfoxide reductase A – biochemical, absorbance, bovine, HTS, primary screen (AID 602163).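 Further: 0% = vehicle and 100% = reference activator.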 Particulars: purified bovine MsrA, absorbance read-out; at 10.6 µM; hits give high values.
For `O=[N+]([O-])c1ccc2c(c1)nnn2O`, the activation was inactive: -10.2%. Under `CN(C)C(=O)c1cc([N+](=O)[O-])cc2c1-c1c(cc([N+](=O)[O-])cc1[N+](=O)[O-])C2=O` stands inactive: -10.9%; under `CN(C(=O)Cc1ccccc1)[C@@H]1CC[C@]2(CCCO2)C[C@H]1N1CCCC1`, inactive: -1.58%. With `CCOP1(=S)c2c(C)nn(CCC#N)c2N=C(c2ccc(F)cc2)N1C` (configuration not stated) the figure was inactive: -12.3%; with `N#CCCN(C(=O)COC(=O)C(O)(c1ccccc1)c1ccccc1)c1ccc(F)cc1`, inactive: -3.12%. For `NC(=O)Nc1ccc([As](=O)(O)O)cc1`, the activation is inactive: -2.23%. With `Nc1ccccc1[As](=O)(O)c1ccccc1` the figure was inactive: -4.92%; with `O=C(O)COc1ccc([As](=O)(O)O)cc1[N+](=O)[O-]`, inactive: -11.1%. Under `CS(=O)(=O)c1cc([N+](=O)[O-])c2no[n+]([O-])c2c1` stands inactive: 1.05%; under `O=P(Nc1nccs1)(Oc1ccccc1)Oc1ccccc1`, inactive: -8.94%. Under `O=P(Nc1nccs1)(c1ccccc1)c1nc2ccccc2s1` (configuration not stated) stands inactive: -3.3%; under `CCOP1(=S)c2c(C)nn(CCC#N)c2N=C(c2ccccc2F)N1C` (configuration not stated), inactive: -2.18%. In the case of `CCOP(=O)(Nc1cccc2ccccc12)OCC`, the activation was inactive: -1.06%. Under `COc1cc(C2NCCC3(OCCO3)C2(C)C)cc(OC)c1OC` (configuration not stated) stands inactive: 3.95%; under `CCCOP(=S)(Nc1nc(N)cc(=O)[nH]1)OCCC`, inactive: -0.45%. For `Nc1cccc2c([As](=O)(O)O)cccc12`, the activation was inactive: -1.09%. Under `Cc1ccc(NCCc2c([N+](=O)[O-])cc([N+](=O)[O-])cc2[N+](=O)[O-])cc1` stands inactive: 2.44%. Regarding `Cc1cccc(OCC(=O)OC2CN3CCC2CC3)c1` (configuration not stated), the activation is inactive: -12.5%. With `O=[As](O)(c1cccc(O)c1)c1cccc(O)c1`, the activation was inactive: -7.19%.

Consider `CS(=O)(=O)c1ccc(Cl)c(NC(=O)COC(=O)C(O)(c2ccccc2)c2ccccc2)c1`, for which the activation is inactive: -3.37%. Under `O=[As](O)(O)c1cccnc1` stands inactive: -1.43%; under `COc1cc(C(=O)NCC2(N3CCOCC3)CCCCC2)cc(Cl)c1OC(C)C`, inactive: -3.66%; under `O=C(OC1CN2CCC1CC2)c1ccc(Cl)cc1` (configuration not stated), inactive: -3.54%. Under `CC1(CBr)Cn2c(nc3ccccc3c2=O)S1` (configuration not stated) stands inactive: -3.62%.

As for `CC(C)/C=N\N=C(\N)N[N+](=O)[O-]`, the activation is inactive: -1.81%. With `COc1ccccc1CNC(=O)COC(=O)C(O)(c1ccccc1)c1ccccc1` the figure was inactive: -2.45%; with `CC(C)(C)C(=O)NC(Sc1ncccn1)C(Cl)(Cl)Cl` (configuration not stated), inactive: 3.34%.
